Legend:
[1] = Stability test in aqueous system (Brilliant Blue color dissipation); assay type: physicochemical; settings: water, 2.76% carbamide peroxide, 0.002% Brilliant Blue; compound amount 0.1%; 60 days, room temperature
[2] = Stability test in propylene glycol (Brilliant Blue color dissipation); assay type: physicochemical; settings: 2.76% carbamide peroxide, 0.002% Brilliant Blue, compound amount 0.1%, 60 days, room temperature
[3] = System stability evaluation: compatibility of ingredients with peroxide source and the system

In the case of Sodium monofluorophosphate, the “Color (color fading grade)” value [1] is reported as “+”, the “Color (color fading grade)” value [2] is reported as “+” and the “Compatibility with the system (cationic biocide and peroxide source)” value [3] is reported as “not compatible”. For the same substance, the “Effect on peroxide and system stability” value ([3]; summary of testing of Tables 2 and 3) was “activate the peroxide and make the system unstable”.

Source: patent US11576947B2, “Oral composition and method” (Kunming Lanchie Dental Hospital, LTD, priority 2019, dated 2023)
